Data published in ChEMBL document CHEMBL1145929, “Syntheses and binding studies of new [(aryl)(aryloxy)methyl]piperidine derivatives and related compounds as potential antidepressant drugs with high affinity for serotonin (5-HT) and norepinephrine (NE) transporters” (J Med Chem, 2003).

Sequences of proteins named here, by UniProt entry; tags and fusion partners are left off.
UniProt P14842, whole entry: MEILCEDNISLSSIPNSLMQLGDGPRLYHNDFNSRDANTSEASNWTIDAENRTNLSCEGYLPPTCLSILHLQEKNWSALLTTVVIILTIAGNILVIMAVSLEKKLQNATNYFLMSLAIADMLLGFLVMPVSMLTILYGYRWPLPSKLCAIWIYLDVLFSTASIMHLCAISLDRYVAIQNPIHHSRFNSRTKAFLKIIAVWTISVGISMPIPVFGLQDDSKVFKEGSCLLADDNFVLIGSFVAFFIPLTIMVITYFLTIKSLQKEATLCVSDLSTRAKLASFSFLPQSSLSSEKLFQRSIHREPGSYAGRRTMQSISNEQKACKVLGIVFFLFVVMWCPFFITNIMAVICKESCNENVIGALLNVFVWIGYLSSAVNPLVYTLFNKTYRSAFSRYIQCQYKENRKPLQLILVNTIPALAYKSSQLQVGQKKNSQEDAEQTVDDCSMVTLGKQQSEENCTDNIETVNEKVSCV
UniProt P23977, whole entry: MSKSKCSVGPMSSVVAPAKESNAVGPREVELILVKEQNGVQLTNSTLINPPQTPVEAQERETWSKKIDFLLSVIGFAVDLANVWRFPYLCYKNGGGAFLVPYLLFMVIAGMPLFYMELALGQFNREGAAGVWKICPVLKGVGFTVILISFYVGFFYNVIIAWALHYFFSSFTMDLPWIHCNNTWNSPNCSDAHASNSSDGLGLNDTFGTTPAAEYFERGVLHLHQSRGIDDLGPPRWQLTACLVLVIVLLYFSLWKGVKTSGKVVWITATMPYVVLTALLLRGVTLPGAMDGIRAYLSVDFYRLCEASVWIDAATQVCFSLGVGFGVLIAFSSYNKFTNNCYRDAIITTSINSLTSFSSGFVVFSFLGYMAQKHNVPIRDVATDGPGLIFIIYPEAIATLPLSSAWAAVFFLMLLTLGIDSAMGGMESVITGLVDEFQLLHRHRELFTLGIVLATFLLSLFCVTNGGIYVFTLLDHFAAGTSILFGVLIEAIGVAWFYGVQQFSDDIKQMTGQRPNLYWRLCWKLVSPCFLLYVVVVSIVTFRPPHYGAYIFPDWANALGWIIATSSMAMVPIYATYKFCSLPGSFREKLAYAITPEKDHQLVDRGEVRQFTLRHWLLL
UniProt Q9WTR4, whole entry: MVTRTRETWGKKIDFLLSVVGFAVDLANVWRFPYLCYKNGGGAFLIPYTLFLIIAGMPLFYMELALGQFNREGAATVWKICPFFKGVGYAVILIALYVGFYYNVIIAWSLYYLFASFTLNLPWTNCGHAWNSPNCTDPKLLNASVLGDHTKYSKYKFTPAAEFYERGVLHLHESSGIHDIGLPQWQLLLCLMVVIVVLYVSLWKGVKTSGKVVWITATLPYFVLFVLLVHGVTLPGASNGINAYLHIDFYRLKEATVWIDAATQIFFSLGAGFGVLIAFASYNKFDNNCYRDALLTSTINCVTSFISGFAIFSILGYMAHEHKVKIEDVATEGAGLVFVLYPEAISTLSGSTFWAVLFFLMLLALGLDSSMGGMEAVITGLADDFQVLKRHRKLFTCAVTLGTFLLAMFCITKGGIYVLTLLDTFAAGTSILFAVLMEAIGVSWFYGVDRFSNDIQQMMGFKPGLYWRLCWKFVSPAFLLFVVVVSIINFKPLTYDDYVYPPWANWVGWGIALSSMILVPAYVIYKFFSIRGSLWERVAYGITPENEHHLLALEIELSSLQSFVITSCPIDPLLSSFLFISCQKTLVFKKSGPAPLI
UniProt P31652, whole entry: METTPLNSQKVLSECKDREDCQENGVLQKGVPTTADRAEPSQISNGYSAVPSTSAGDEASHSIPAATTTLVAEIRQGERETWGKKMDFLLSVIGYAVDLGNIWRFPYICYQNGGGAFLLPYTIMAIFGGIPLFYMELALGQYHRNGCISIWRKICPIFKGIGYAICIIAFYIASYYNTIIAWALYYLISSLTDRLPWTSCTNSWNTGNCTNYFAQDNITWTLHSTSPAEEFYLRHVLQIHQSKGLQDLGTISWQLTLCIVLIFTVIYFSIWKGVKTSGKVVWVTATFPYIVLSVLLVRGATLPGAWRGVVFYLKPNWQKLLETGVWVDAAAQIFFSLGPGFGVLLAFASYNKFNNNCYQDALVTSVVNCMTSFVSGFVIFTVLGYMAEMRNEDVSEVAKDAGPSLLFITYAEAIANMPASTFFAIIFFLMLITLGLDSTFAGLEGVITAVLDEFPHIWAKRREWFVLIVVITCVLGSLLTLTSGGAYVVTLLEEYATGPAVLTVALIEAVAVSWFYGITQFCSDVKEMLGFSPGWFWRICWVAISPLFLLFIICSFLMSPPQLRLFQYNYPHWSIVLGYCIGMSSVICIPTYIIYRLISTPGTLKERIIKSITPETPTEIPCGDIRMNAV

Assays:
[1] = target: 5-hydroxytryptamine receptor 2A (Rattus norvegicus, UniProt P14842); assay: Binding affinity against 5-hydroxytryptamine 2A receptor by displacement of [3H]ketanserin from rat prefrontal cerebral cortex mambranes; format: tissue-based, Frontal cortex
[2] = target: Sodium-dependent dopamine transporter (Rattus norvegicus, UniProt P23977); assay: Binding affinity against dopamine transporter (DAT) by displacement of [3H]WIN-35428 in male wistar rats
[3] = target: Norepinephrine transporter (Rattus norvegicus, UniProt Q9WTR4); assay: Binding affinity against norepinephrine transporter (NET) by displacement of [3H]nisoxetine in male wistar rats
[4] = target: Sodium-dependent serotonin transporter (Rattus norvegicus, UniProt P31652); assay: Binding affinity to the serotonin transporter (SERT) measured by displacement of [3H]paroxetine in male wistar rats

`CN1CCN2c3ncccc3Cc3ccccc3C2C1` (stereo not given) [MIRTAZAPINE] gave a Ki [1] of 14.8 nM.
For `COc1ccc(C(CN(C)C)C2(O)CCCCC2)cc1` (stereo not given) [VENLAFAXINE], the IC50 [2] was greater than 1000 nM.
With `CNCCC(Oc1ccccc1OC)c1ccccc1` (stereo not given) [NISOXETINE] the Ki [3] was 9.9 nM.
For `Fc1ccc([C@@H]2CCNC[C@H]2COc2ccc3c(c2)OCO3)cc1` [PAROXETINE], the Ki [4] was 0.7 nM.
Work on `Fc1ccc(OC(c2ccccc2)C2CCNCC2)cc1` (single isomer, unassigned; (-)) yielded an IC50 [3] greater than 1000 nM.
